From patent publication US20130129722A1

Chains of the proteins cited; added tags and fusions are not shown. A line that says so, or that is headed by a name, gives the form on record, which may keep a tag or linker.
Dimeric Mouse Ang-2FD conjugated to human IgG1 (mouse (Mus musculus)), one chain, as listed by the source limits assumed: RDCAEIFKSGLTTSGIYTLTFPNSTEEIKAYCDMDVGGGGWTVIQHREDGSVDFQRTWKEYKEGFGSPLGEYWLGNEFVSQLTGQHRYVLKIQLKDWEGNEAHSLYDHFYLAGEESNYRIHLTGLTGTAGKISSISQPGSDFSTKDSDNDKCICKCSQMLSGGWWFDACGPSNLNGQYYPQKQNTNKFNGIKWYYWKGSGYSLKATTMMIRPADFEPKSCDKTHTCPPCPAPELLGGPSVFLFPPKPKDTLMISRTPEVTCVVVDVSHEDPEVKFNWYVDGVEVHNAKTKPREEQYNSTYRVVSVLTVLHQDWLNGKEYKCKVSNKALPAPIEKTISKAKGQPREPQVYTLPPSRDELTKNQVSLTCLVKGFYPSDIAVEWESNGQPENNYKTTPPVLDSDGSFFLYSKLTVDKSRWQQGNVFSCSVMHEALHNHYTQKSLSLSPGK

Target: Dimeric Mouse Ang-2FD conjugated to human IgG1 (mouse (Mus musculus))
Test: SPR, human IgG1 antibody captured

Kd: 158 pM
B1: H1H744N (antibody, V domains shown)
VH: QVQLVQSGVEVKKPGASVKVSCKTSGYTFSNNGFSWVRQAPGQGLEWLGWISGYNGNTNYAQKFQGRVTMTTDTSTSTAYMELRTLRSDDTAVYYCARDQDYSNFHWLDPWGQGTLVTVAS
VL: DIQMTQSPSSVSASVGDRVIITCRASQGLSSWLAWYQQKPGTAPKLLIHSASSLQTGVPSRFSGSGSGTEFALTINSLQPEDFGTYYCQQANSFPLTFGGGTRVEIK
